Source: ChEMBL document CHEMBL1155007, “Synthesis and monoamine transporter binding properties of 2beta-[3'-(substituted benzyl)isoxazol-5-yl]- and 2beta-[3'-methyl-4'-(substituted phenyl)isoxazol-5-yl]-3beta-(substituted phenyl)tropanes” (Bioorg Med Chem, 2008)

Amino acid sequences for entries named in this document (tags omitted).
UniProt P31645, whole entry: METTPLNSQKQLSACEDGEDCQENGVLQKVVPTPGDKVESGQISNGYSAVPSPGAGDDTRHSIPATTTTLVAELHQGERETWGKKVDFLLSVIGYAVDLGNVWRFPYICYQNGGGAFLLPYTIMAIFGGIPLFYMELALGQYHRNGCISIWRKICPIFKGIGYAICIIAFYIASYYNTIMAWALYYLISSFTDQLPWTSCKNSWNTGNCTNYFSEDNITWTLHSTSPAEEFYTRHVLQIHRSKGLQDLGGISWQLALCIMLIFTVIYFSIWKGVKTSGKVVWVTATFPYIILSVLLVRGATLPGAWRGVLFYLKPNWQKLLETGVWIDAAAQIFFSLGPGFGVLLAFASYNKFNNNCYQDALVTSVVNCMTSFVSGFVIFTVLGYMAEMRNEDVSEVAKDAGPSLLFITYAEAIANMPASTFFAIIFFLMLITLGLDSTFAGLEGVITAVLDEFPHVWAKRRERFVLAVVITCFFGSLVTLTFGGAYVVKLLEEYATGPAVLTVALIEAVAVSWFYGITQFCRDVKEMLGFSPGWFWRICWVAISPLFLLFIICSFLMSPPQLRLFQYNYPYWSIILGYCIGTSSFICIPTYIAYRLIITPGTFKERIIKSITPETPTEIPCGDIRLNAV

Target: Sodium-dependent serotonin transporter (Homo sapiens, UniProt P31645)
Assay: Displacement of [3H]paroxetine from 5HTT
How it was run: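 Competitive radioligand binding at the serotonin transporter, with 0.2 nM [3H]paroxetine as the final radioligand concentration. Compounds were tested as HCl salts. Values are means ± standard error of three or four experiments, each run in duplicate.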

In the case of `COC(=O)[C@@H]1C2CC[C@H](C[C@@H]1c1ccccc1)N2C`, the Ki is reported as 182 nM.
